Source: ChEMBL document CHEMBL1146292, “Dual serotonin transporter/histamine H3 ligands: Optimization of the H3 pharmacophore” (Bioorg Med Chem Lett, 2007)

The chains behind the UniProt entries cited, without tags or fusion partners. Where a name states a change or a piece, a line headed by the entry shows the natural chain unless it says otherwise.
UniProt P31652, whole entry: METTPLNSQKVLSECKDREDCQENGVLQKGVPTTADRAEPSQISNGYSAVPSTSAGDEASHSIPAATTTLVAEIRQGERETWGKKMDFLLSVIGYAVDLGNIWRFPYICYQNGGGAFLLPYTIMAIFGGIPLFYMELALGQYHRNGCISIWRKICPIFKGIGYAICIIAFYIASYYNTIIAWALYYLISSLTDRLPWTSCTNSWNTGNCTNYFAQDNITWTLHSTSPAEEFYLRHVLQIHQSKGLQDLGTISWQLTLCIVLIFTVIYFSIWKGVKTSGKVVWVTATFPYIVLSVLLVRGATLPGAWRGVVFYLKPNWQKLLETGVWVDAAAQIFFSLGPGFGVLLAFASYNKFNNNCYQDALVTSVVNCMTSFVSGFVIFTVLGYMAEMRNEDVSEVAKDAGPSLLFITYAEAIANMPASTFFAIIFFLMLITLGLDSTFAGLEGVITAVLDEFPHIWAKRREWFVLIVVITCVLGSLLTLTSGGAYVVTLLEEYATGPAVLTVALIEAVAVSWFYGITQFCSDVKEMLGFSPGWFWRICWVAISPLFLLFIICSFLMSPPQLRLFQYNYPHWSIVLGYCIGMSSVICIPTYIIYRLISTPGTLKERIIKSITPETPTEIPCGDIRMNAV
UniProt Q9Y5N1: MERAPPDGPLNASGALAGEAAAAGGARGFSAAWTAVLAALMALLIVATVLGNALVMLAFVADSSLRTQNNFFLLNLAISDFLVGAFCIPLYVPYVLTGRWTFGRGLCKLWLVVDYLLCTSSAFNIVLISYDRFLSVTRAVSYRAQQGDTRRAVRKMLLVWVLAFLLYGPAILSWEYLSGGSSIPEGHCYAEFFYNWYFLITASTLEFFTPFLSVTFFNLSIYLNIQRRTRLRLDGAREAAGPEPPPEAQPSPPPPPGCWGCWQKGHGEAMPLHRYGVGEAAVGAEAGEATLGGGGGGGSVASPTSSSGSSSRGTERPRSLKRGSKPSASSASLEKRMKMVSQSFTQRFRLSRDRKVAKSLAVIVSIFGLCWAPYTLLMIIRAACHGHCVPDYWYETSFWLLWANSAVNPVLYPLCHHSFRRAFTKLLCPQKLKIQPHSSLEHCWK

Columns and labels:
[1] = target: Sodium-dependent serotonin transporter (Rattus norvegicus, UniProt P31652); experiment: Binding affinity to rat SERT
Outline: (§1)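 Means of at least three independent experiments, each run in triplicate; standard error of the mean reported.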

Histamine H3 receptor = Histamine H3 receptor (Homo sapiens, UniProt Q9Y5N1); experiment: Binding affinity to human histamine H3 receptor; outline: as §1

Structure (SMILES): COc1ccc(C2CN(C)Cc3cc(OCCCN4CCCCC4)ccc32)cc1 (stereo not drawn)
- Ki [1]: 2 nM

Structure (SMILES): COc1ccc(C2CN(C)Cc3cc(OCCCN4CCCC(F)(F)C4)ccc32)cc1 (stereo not drawn)
- Ki (Histamine H3 receptor): 14 nM

Structure (SMILES): COc1ccc(C2CN(C)Cc3cc(OCCCN4CCC(F)CC4)ccc32)cc1 (stereo not drawn)
- Ki (Histamine H3 receptor): 2 nM
